Data reported in US9636374B2, “pH-sensitive polymer-drug conjugates for targeted delivery of therapeutics” (priority 2011, dated 2017).

Tests used:
[1] = Time-dependent release of BTZ from catechol polymers in buffered solutions; format: physicochemical; settings: 10 mM PBS, 37° C.
Description: FIG. 3D. Time-dependent release of BTZ from the catechol polymers BPC and PC at pH 5.0, 6.5, and 7.4. The fraction of BTZ released was 30% from both polymers at pH 7.4 over 12 h, while 80% of the BTZ was released at pH 5.0 in the same period of time. Drug-polymer conjugates formed between 0.2 mM and 0.05 mM BPC or PC were used for all measurements of release in 10 mM PBS buffers at 37° C.
With confirmation of the cancer-targeting function of the biotin ligand, PEG polymers were synthesized to provide 4 catechol groups for conjugating BTZ, allowing multiple drug molecules to be loaded onto the polymeric carrier. Reference is made to Scheme 1, BPC and PC, above; and FIG. 3C.) Time-dependent release of BTZ from these catechol polymers was carried out in buffered solutions at pH 7.4, 6.5, and 5.0, mimicking the physiological pH in normal tissue and blood, the tumor extracellular environment, and subcellular endosome, respectively.

Ac-[Lys(ε-NH-catechol)]4-Gly-PEG-biotin [BPC]
diameter of micelle-like structures (aqueous solutions (pH 7.4), before conjugation of BTZ): 30˜50 nm
size of microstructure (pH 7.4, after the conjugation of BTZ): 50˜80 nm
fraction of BTZ released ([1]; pH 5.0, over 12 h): 80%
fraction of BTZ released ([1]; pH 7.4, over 12 h): 30%
